From PubChem BioAssay AID652083 (The Scripps Research Institute Molecular Screening Center, 2013) come the findings set out here.

This experiment deals with 5-HT transporter. The experiment is described as follows: PubChem AID 652083. Conditions: CEREP radioligand binding panel, % inhibition at 10 uM, hits give high values.

The list shows a part of the results. Active and inactive are the calls of the source.

With `COC(=O)c1cc(Br)cnc1N1CCC(NC2CCCCC2)C(O)C1` (stereo unspecified), the inhibition of specific binding is inactive: 24%.
